40 molecules from patent EP4563146A1 (IRBM S.P.A., priority 2023, dated 2025) can be followed below.

Structures are written as SMILES. Where only a bound is given, the exact number is not on record here.

One assay has as its target DEN2V NS2B-G4SG4-NS3 serine protease (Dengue virus type 2, UniProt Q91H74). Nature of the assay: DEN2V protease inhibition assay.
Details: not given
Molecule `O=C([N-]c1c[n+](Cc2ccccn2)no1)Nc1cc(NC(=O)C23CC(C(=O)O)(C2)C3)cc(C(F)(F)F)c1` [Example 52, ((3-(3-Carboxybicyclo[1.1.1]pentane-1-carboxamido)-5-(trifluoromethyl)phenyl)-carbamoyl)(3-(pyridin-2-ylmethyl)-1,2,3-oxadiazol-3-ium-5-yl)amide] registered an IC50 of 1 to 20 µM.

For `O=C([N-]c1c[n+](Cc2ccccn2)no1)Nc1cc(NCCc2ccccc2)cc(C(F)(F)F)c1` [Example 53, ((3-(Phenethylamino)-5-(trifluoromethyl)-phenyl)carbamoyl)(3-(pyridin-2-ylmethyl)-1,2,3-oxadiazol-3-ium-5-yl)amide], the IC50 lay within 1 to 20 µM.

The molecule `Cc1cc(NC(=O)Cc2ccccc2)cc(NC(=O)[N-]c2c[n+](Cc3ccccn3)no2)c1` [Example 57, ((3-Methyl-5-(2-phenylacetamido)phenyl)carbamoyl)(3-(pyridin-2-ylmethyl)-1,2,3-oxadiazol-3-ium-5-yl)amide] had an IC50 of 0.1 to 1 µM.

As for `O=C(CC1CC2CC1C2)Nc1cc(NC(=O)[N-]c2c[n+](Cc3ccccn3)no2)cc(C(F)(F)F)c1` (stereo not shown) [Example 63, ((3-(2-(Bicyclo[2.1.1]hexan-2-yl)acetamido)-5-(trifluoromethyl)phenyl)carbamoyl)(3-(pyridin-2-ylmethyl)-1,2,3-oxadiazol-3-ium-5-yl)amide], the IC50 is 0.1 to 1 µM.

`CC(c1ccc(C(=O)Nc2cc(NC(=O)[N-]c3c[n+](Cc4ccccn4)no3)cc(C(F)(F)F)c2)cc1)S(N)(=O)=O` (stereo not shown) [Example 78, (3-(Pyridin-2-ylmethyl)-1,2,3-oxadiazol-3-ium-5-yl)((3-(4-(1-sulfamoylethyl)-benzamido)-5-(trifluoromethyl)phenyl)carbamoyl)amide]: the IC50 was 1 to 20 µM.

`O=C([N-]c1c[n+](Cc2ccccn2)no1)Nc1cc(NC(=O)C2CCn3cncc3C2)cc(C(F)(F)F)c1` (stereo not shown) [Example 80, (3-(Pyridin-2-ylmethyl)-1,2,3-oxadiazol-3-ium-5-yl)((3-(5,6,7,8-tetrahydroimidazo [1,5-a]pyridine-7-carboxamido)-5-(trifluoromethyl)phenyl)carbamoyl)amide] yielded an IC50 of 1 to 20 µM.

In the case of `O=C([N-]c1c[n+](Cc2ccccn2)no1)Nc1cc(NC(=O)c2ccn3c2COCC3)cc(C(F)(F)F)c1` [Example 81, ((3-(3,4-Dihydro-1H-pyrrolo[2,1-c][1,4]oxazine-8-carboxamido)-5-(trifluoromethyl)-phenyl)carbamoyl)(3-(pyridin-2-ylmethyl)-1,2,3-oxadiazol-3-ium-5-yl)amide], the IC50 was in the range of 1 to 20 µM.

With `O=C(CC1(N2CCCC2)COC1)Nc1cc(NC(=O)[N-]c2c[n+](Cc3ccccn3)no2)cc(C(F)(F)F)c1` [Example 86, (3-(Pyridin-2-ylmethyl)-1,2,3-oxadiazol-3-ium-5-yl)((3-(2-(3-(pyrrolidin-1-yl)oxetan-3-yl)acetamido)-5-(trifluoromethyl)phenyl)carbamoyl)amide], the IC50 lay in the range of 0.1 to 1 µM.

`O=C([N-]c1c[n+](Cc2ccccn2)no1)Nc1cc(NC(=O)c2[nH]cc3c2CCC3)cc(C(F)(F)F)c1` [Example 87, (3-(Pyridin-2-ylmethyl)-1,2,3-oxadiazol-3-ium-5-yl)((3-(2,4,5,6-tetrahydrocyclopenta[c]pyrrole-1-carboxamido)-5-(trifluoromethyl)phenyl)-carbamoyl)amide]: the IC50 was over 20 µM.

In the case of `O=C(Cc1cc(NC(=O)[N-]c2c[n+](Cc3ccccn3)no2)cc(C(F)(F)F)c1)NCc1ccccc1` [Example 90, ((3-(2-(Benzylamino)-2-oxoethyl)-5-(trifluoromethyl)phenyl)carbamoyl)(3-(pyridin-2-ylmethyl)-1,2,3-oxadiazol-3-ium-5-yl)amide], the IC50 lay in the range of 0.1 to 1 µM.

For `C=CCOC(=O)C[n+]1cc([N-]C(=O)Nc2cc(NC(=O)Cc3ccccc3)cc(C(F)(F)F)c2)on1` [Example 97, (3-(2-(Allyloxy)-2-oxoethyl)-1,2,3-oxadiazol-3-ium-5-yl)((3-(2-phenylacetamido)-5-(trifluoromethyl)phenyl)carbamoyl)amide], the IC50 is under 0.1 µM.

Turning to `COC(=O)c1ccc(C[n+]2cc([N-]C(=O)Nc3cc(NC(=O)Cc4ccccc4)cc(C(F)(F)F)c3)on2)cc1` [Example 98, (3-(4-(Methoxycarbonyl)benzyl)-1,2,3-oxadiazol-3-ium-5-yl)((3-(2-phenyl-acetamido)-5-(trifluoromethyl)phenyl)carbamoyl)amide], the IC50 was under 0.1 µM.

`O=C(Cc1ccccc1)Nc1cc(NC(=O)[N-]c2c[n+](C3CCNCC3)no2)cc(C(F)(F)F)c1` [Example 99, ((3-(2-Phenylacetamido)-5-(trifluoromethyl)-phenyl)carbamoyl)(3-(piperidin-4-yl)-1,2,3-oxadiazol-3-ium-5-yl)amide] yielded an IC50 of under 0.1 µM.

In turn, `CN1CCC([n+]2cc([N-]C(=O)Nc3cc(NC(=O)Cc4ccccc4)cc(C(F)(F)F)c3)on2)CC1` [Example 100, (3-(1-Methylpiperidin-4-yl)-1,2,3-oxadiazol-3-ium-5-yl)((3-(2-phenylacetamido)-5-(trifluoromethyl)phenyl)carbamoyl)amide] yielded an IC50 of 0.1 to 1 µM.

As to `O=C(Cc1ccccc1)Nc1cc(NC(=O)[N-]c2c[n+](Cc3cccc(CN4C(=O)c5ccccc5C4=O)c3)no2)cc(C(F)(F)F)c1` [Example 107, (3-(3-((1,3-Dioxoisoindolin-2-yl)methyl)benzyl)-1,2,3-oxadiazol-3-ium-5-yl)((3-(2-phenylacetamido)-5-(trifluoromethyl)phenyl)carbamoyl)amide], the IC50 is under 0.1 µM.

`O=C(Cc1ccc(=O)[nH]c1)Nc1cc(NC(=O)[N-]c2c[n+](Cc3ccccn3)no2)cc(C(F)(F)F)c1` [Example 123, ((3-(2-(6-Oxo-1,6-dihydropyridin-3-yl)acetamido)-5-(trifluoromethyl)phenyl)-carbamoyl)(3-(pyridin-2-ylmethyl)-1,2,3-oxadiazol-3-ium-5-yl)amide] displayed an IC50 of 1 to 20 µM.

As for `O=C(Cc1ccccc1)Nc1cc(NC(=O)[N-]c2c[n+](CC3CCCCN3)no2)cc(C(F)(F)F)c1` (stereo not shown) [Example 125, ((3-(2-Phenylacetamido)-5-(trifluoromethyl)-phenyl)carbamoyl)(3-(piperidin-2-ylmethyl)-1,2,3-oxadiazol-3-ium-5-yl)amide], the IC50 was under 0.1 µM.

Molecule `O=C(Cc1cccc2cn[nH]c12)Nc1cc(NC(=O)[N-]c2c[n+](Cc3ccccn3)no2)cc(C(F)(F)F)c1` [Example 126, ((3-(2-(1H-Indazol-7-yl)acetamido)-5-(trifluoromethyl)phenyl)carbamoyl)(3-(pyridin-2-ylmethyl)-1,2,3-oxadiazol-3-ium-5-yl)amide] returned an IC50 of 0.1 to 1 µM.

Staying with this assay, now noted: read-out: Dengue 2 - NS3 protease.
Consider `CN1CC(C(=O)Nc2cc(NC(=O)[N-]c3c[n+](Cc4ccccn4)no3)cc(C(F)(F)F)c2)C1` [Example 49], for which the IC50 fell in the range of 1 to 20 µM.

Consider `O=C([N-]c1c[n+](Cc2ccccn2)no1)Nc1cc(NC(=O)C2CC2c2ccccc2)cc(C(F)(F)F)c1` (stereo not shown) [Example 50], for which the IC50 is 0.1 to 1 µM.

On to `O=C(CC1CCC1)Nc1cc(NC(=O)[N-]c2c[n+](Cc3ccccn3)no2)cc(C(F)(F)F)c1` [Example 54], for which the IC50 fell in the range of 0.1 to 1 µM.

Consider `O=C([N-]c1c[n+](Cc2ccccn2)no1)Nc1cc(NC(=O)c2cc3n(n2)CCS(=O)(=O)C3)cc(C(F)(F)F)c1` [Example 64], for which the IC50 was in the range of 1 to 20 µM.

As to `O=C(Cn1c(C(F)F)nc2ccccc21)Nc1cc(NC(=O)[N-]c2c[n+](Cc3ccccn3)no2)cc(C(F)(F)F)c1` [Example 65], the IC50 was 1 to 20 µM.

On to `O=C([N-]c1c[n+](Cc2ccccn2)no1)Nc1cc(NC(=O)C23CCC(O)(CC2)C3)cc(C(F)(F)F)c1` [Example 66], for which the IC50 is 1 to 20 µM.

With `Cc1cccc2c1OCC2C(=O)Nc1cc(NC(=O)[N-]c2c[n+](Cc3ccccn3)no2)cc(C(F)(F)F)c1` (stereo not shown) [Example 67], the IC50 lay within 0.1 to 1 µM.

For `O=C([N-]c1c[n+](Cc2ccccn2)no1)Nc1cc(NC(=O)C2CC(Cc3ccccc3)C2)cc(C(F)(F)F)c1` (stereo not shown) [Example 68], the IC50 was in the range of 0.1 to 1 µM.

Turning to `O=C([N-]c1c[n+](Cc2ccccn2)no1)Nc1cc(NC(=O)[C@H]2C[C@](O)(c3ccccn3)C2)cc(C(F)(F)F)c1` [Example 69], the IC50 lay within 1 to 20 µM.

As for `Cc1ccc(CN2CCC(C(=O)Nc3cc(NC(=O)[N-]c4c[n+](Cc5ccccn5)no4)cc(C(F)(F)F)c3)CC2)o1` [Example 70], the IC50 fell in the range of 1 to 20 µM.

In the case of `N#Cc1ccn(C2(C(=O)Nc3cc(NC(=O)[N-]c4c[n+](Cc5ccccn5)no4)cc(C(F)(F)F)c3)CC2)n1` [Example 71], the IC50 is 1 to 20 µM.

In the case of `Cn1cnnc1COCC(=O)Nc1cc(NC(=O)[N-]c2c[n+](Cc3ccccn3)no2)cc(C(F)(F)F)c1` [Example 72], the IC50 lay in the range of 1 to 20 µM.

For `O=C(CCOC1CCCC1)Nc1cc(NC(=O)[N-]c2c[n+](Cc3ccccn3)no2)cc(C(F)(F)F)c1` [Example 73], the IC50 is under 0.1 µM.

For the molecule `O=C([N-]c1c[n+](Cc2ccccn2)no1)Nc1cc(NC(=O)c2cncn2C2CC2)cc(C(F)(F)F)c1` [Example 75], the IC50 was 1 to 20 µM.

As to `O=C([N-]c1c[n+](Cc2ccccn2)no1)Nc1cc(NC(=O)C2CN(C3CC3)C2)cc(C(F)(F)F)c1` [Example 77], the IC50 lay within 1 to 20 µM.

For `O=C([N-]c1c[n+](Cc2ccccn2)no1)Nc1cc(NC(=O)c2ccc3c(n2)CCO3)cc(C(F)(F)F)c1` [Example 79], the IC50 was 1 to 20 µM.

For `O=C(CCCCS(=O)(=O)N1CCCCC1)Nc1cc(NC(=O)[N-]c2c[n+](Cc3ccccn3)no2)cc(C(F)(F)F)c1` [Example 82], the IC50 was 1 to 20 µM.

As to `O=C([N-]c1c[n+](Cc2ccccn2)no1)Nc1cc(NC(=O)C2(Oc3ccc(Cl)cc3)COC2)cc(C(F)(F)F)c1` [Example 83], the IC50 lay within 0.1 to 1 µM.

As to `O=C([N-]c1c[n+](Cc2ccccn2)no1)Nc1cc(NC(=O)C2CCCC3(CCOC3)O2)cc(C(F)(F)F)c1` (stereo not shown) [Example 84], the IC50 was in the range of 1 to 20 µM.

Consider `O=C([N-]c1c[n+](Cc2ccccn2)no1)Nc1cc(NC(=O)C2CC(F)(F)C23CCC3)cc(C(F)(F)F)c1` (stereo not shown) [Example 85], for which the IC50 fell in the range of 0.1 to 1 µM.

Consider `O=C([N-]c1c[n+](Cc2ccccn2)no1)Nc1cc(NC(=O)C2CS(=O)(=O)CCO2)cc(C(F)(F)F)c1` (stereo not shown) [Example 88], for which the IC50 was over 20 µM.

As for `O=C(Cc1ccccc1)Nc1cc(NC(=O)[N-]c2c[n+](CC3CCNCC3)no2)cc(C(F)(F)F)c1` [Example 120], the IC50 is under 0.1 µM.
